# Screening results (PubChem)
# Shown are actives, neighbours in structure and some others; about 1.8% of the full set was active somewhere.
# AF4-AF9 inh: MLL-AF4/AF9 protein interaction inhibition; P42568; actives 0.47% (n = 350,000); AlphaScreen, biotin-AF4 peptide binding to FLAG-AF9; inhibition, % at 10 µM;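 active means every replicate reaching a set inhibition limit, whatever the replicate mean, cut at about 25% in these data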;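 further: 0% = plate neutral control median and 100% = total signal loss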
# RAD52 anneal inh: RAD52 (human) annealing inhibition; P43351; recombinant RAD52 DNA annealing, FRET fluorescence; inhibition, % at 18.7 µM; actives 0.46% (n = 360,000);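 active means every replicate showing at least 50% inhibition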
# RAD54 branch: RAD54 (human) branch migration inhibition | Q92698 | RAD54 Holliday junction branch migration, FAM/BHQ fluorescence | inhibition, % at 10.4 µM | actives 0.14% (n = 360,000) | AID 602329;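 active means mean normalized replicate activity at least 40 and at least half of replicates scoring 40 or more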;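 further: 0% = median of neutral control wells and 100% = median of positive control wells; inhibitors cause a drop in the FAM fluorescence signal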
# E-selectin induc: induces E-selectin expression in human endothelial cells. AID 686992. actives 0.37% (n = 260,000). activation, % at 7.58 µM. P16581. HUVEC E-selectin immunofluorescence imaging; normalized: neutral wells 0, TNF-alpha wells 100;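 active means mean E-selectin-positive cell signal at least 10% of the positive control, reached in at least 60% of replicates, without over 20% cell loss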
#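 Read-out: % PE-positive cells | Test system: HUVEC | Doses: One compound dose added by pin transfer | Buffer or medium: EGM-2 over gelatin coat | Signal: Immunofluorescence imaging | Benchmarks: TNF-alpha, DMSO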
# Yeast UUG start: yeast start codon fidelity modulation | S. cerevisiae UUG-firefly luciferase reporter, luminescence/redox ratio | activity score, % at 18.7 µM | 0.13% of 350,000 active | AID 602363;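 active means replicate mean at a twofold rise or more, about +100% in these data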;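 further: firefly luciferase made from a UUG start codon reports start codon fidelity; reporter light over untreated wells divided by growth signal over untreated wells; some hits fall short of that in this replicate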
# SIRT5 inh: sirtuin-5 (human) deacylase inhibition; Purified SirT5, succinyl-peptide AMC, trypsin-coupled fluorescence; inhibition, % at 15 µM; actives 1.1% (n = 330,000); AID 652115; in the data active means inhibition above about 15%
# * marks the source's active call; other numbers are inactive results; x = no result given.
No.	mol	AF4-AF9 inh	RAD52 anneal inh	RAD54 branch
1	CCN(CC)S(=O)(=O)c1ccc(N2CCOCC2)c(NC(=O)c2ccc(NC(C)=O)cc2)c1	0	-32	x
2	COc1ccc(C(=O)c2nccc3cc(OC)c(OC)cc23)cc1OC	x	x	33
3	COc1cc2c(cc1OC)-c1c(OC)c(OC)cc3ccnc(c13)C2=O	8	-114	88*
4	COc1cccc(CNC(=O)c2cc3c(c(-c4cccc(-c5cccc(C#N)c5)c4)n2)[C@H](CCO)N([S@@](=O)C(C)(C)C)C3)c1	7	59*	-4
5	COc1cccc(CNC(=O)c2cc3c(c(-c4cccc(-c5ccncc5)c4)n2)[C@H](CCO)N([S@@](=O)C(C)(C)C)C3)c1	8	23	5
6	CCOc1cc(/C=C/C(=O)NCCc2ccc(S(N)(=O)=O)cc2)ccc1OCC(C)C	-1	-11	x
7	CCOc1cc(/C=C/C(=O)Nc2ccc(C(=O)NCCN(CC)CC)cc2)ccc1OCC(C)C	31*	27	x
8	O=C(N/N=C/c1ccc(OC(=O)c2ccccc2)cc1)c1ccc(CN2CCOCC2)cc1	x	x	6
9	O=C(N/N=C/c1ccc(OC2CSC2)cc1)c1ccc(CN2CCOCC2)cc1	-1	1	x
10	C[C@@H]1CN([C@H](C)CO)S(=O)(=O)c2ccc(-c3ccncc3)cc2O[C@@H]1CN(C)CC1CC1	-5	5	1
11	CNC[C@@H]1Oc2ccc(NC(=O)Nc3c(C)noc3C)cc2C(=O)N([C@@H](C)CO)C[C@H]1C	-4	-1	-27
12	C[C@H]1c2cccc(O)c2C(O)=C2C(=O)[C@]3(O)C(O)=C(C(N)=O)C(=O)[C@@H](N(C)C)[C@@H]3[C@@H](O)[C@@H]21	x	x	0
13	CN(C)c1ccc(O)c2c1CC1CC3[C@@H](N(C)C)C(=O)C(C(N)=O)=C(O)[C@]3(O)C(=O)C1=C2O (stereo not given in full)	-6	16	6
14	CN(CC(=O)Nc1cccc(F)c1)C(=O)Cn1c(=O)cnc2ccccc21	29*	-4	x
15	CN(CC(=O)Nc1ccc(OC(F)(F)F)cc1)C(=O)Cn1c(=O)cnc2ccccc21	0	-7	5

No.	E-selectin induc	Yeast UUG start	SIRT5 inh
1	0	x	15*
2	x	-27	x
3	0	-9	x
4	15	x	4
5	1	x	7
6	2	x	3
7	10	x	-5
8	x	-8	x
9	0	x	28*
10	0	-15	0
11	0	-32	0
12	x	-15	x
13	5	-2	34*
14	0	x	0
15	x	-7	-2

# Later entries.
No.	mol	AF4-AF9 inh	RAD52 anneal inh	RAD54 branch
16	CCOC(=O)COc1ccc2c3c(c(=O)oc2c1C)CCC3	x	x	3
17	Cc1c(OCC(=O)N(C)c2ccccc2)ccc2c3c(c(=O)oc12)CCC3	32*	6	5
18	CN1CCN(c2ccc(-c3cc(NC=O)c4ncc(-c5ccc(F)cc5)n4c3)cc2)CC1	38*	21	18
19	O=CNc1cc(-c2cccc(F)c2)cn2c(-c3ccc(F)cc3)cnc12	-1	-27	-11
20	CCOc1ccc(NC(=O)Cn2c(=O)n(CC3CCCO3)c(=O)c3ccccc32)cc1 (stereo not given)	-1	-7	0
21	O=C(COC(=O)Cc1c(Cl)cccc1Cl)Nc1ccc2[nH]c(=O)[nH]c2c1	1	-11	-6
22	O=C(COC(=O)Cc1c(F)cccc1Cl)Nc1ccc2[nH]c(=O)[nH]c2c1	0	-7	-6
23	Cc1[nH]c(C)c(S(=O)(=O)N2CCN(c3ccccc3)CC2)c1C(=O)N1CCCC1	4	-12	4
24	Cc1[nH]c(C)c(S(=O)(=O)N2CCCCC2)c1C(=O)N1CCCC1	2	-8	-14
25	CCCN1CCC2(CC1)CN(Cc1ccccc1OC)[C@H](CO)c1c2c2ccc(OC)cc2n1C	17	x	x
26	Cc1cc2nc(-c3nnnn3-c3c(C)cccc3C)c(=O)[nH]c2cc1C	1	-18	x
27	Cc1cccc(C)c1-n1nnnc1-c1nc2ccccc2[nH]c1=O	-1	-9	x
28	O=C(Nc1cccc(C(F)(F)F)c1)c1cc[n+]([O-])cc1	2	-19	x
29	CC1CCCC(NC(=O)COC(=O)Cc2cn3ccsc3n2)C1C (stereo not given)	x	-10	-2
30	O=C(COC(=O)Cc1cn2ccsc2n1)NC12CC3CC(CC(C3)C1)C2	x	x	-27

No.	E-selectin induc	Yeast UUG start	SIRT5 inh
16	x	11	x
17	0	23	3
18	1	-11	x
19	0	-16	x
20	0	-4	15*
21	x	-16	10
22	0	-11	15*
23	x	3	-1
24	85*	-19	-7
25	0	x	x
26	7	x	-4
27	49*	x	2
28	27*	x	1
29	x	-20	15*
30	x	-17	x

# Continued:
No.	mol	AF4-AF9 inh	RAD52 anneal inh	RAD54 branch
31	OC(CSc1ccc(F)cc1)CN1CCN(c2ccccc2)CC1 (stereo not given)	1	-13	x
32	COc1cc(/C=C2/C(C)=C(C#N)c3nc(N)c(C#N)c(C)c32)ccc1OCC(=O)O	5	-84	x
33	CC1=C(C#N)c2nc(N)c(C#N)c(C)c2/C1=C\c1ccc(-c2ccccc2C(=O)O)o1	4	-42	x
34	O=C1N[C@@H](Cc2ccccc2)[C@@H](c2ccco2)O1	1	-28	-1
35	C[C@H](CO)N1C[C@H](C)[C@H](CN(C)S(=O)(=O)c2ccccc2)OCCCC[C@H](C)Oc2ccc(NC(=O)Nc3ccccc3)cc2C1=O	1	-35	-3
36	CC(=O)Nc1ccc(NC(=O)COc2ccc(Br)cc2C)cc1	-1	-3	-7
37	O=C(COc1ccc(Cl)cc1Cl)Nc1ccc(Cl)cn1	-1	1	9
38	CC(=O)Nc1ccc(NC(=O)COc2ccc(Cl)cc2Cl)cc1	-1	0	-7
39	CC(=O)N(C)c1ccc(NC(=O)COc2ccc(Br)cc2C)cc1	-79	-4	-4
40	CNC[C@@H]1OCCCC[C@H](C)Oc2ccc(NC(=O)Nc3ccc(C(F)(F)F)cc3)cc2C(=O)N([C@H](C)CO)C[C@@H]1C	2	x	14
41	CC(O)C(=O)N/N=C/c1ccccc1C(=O)O (stereo not given)	-2	-10	2
42	Cc1cc(C(=O)CN2C(=O)C(=O)N(Cc3ccco3)C2=O)c(C)n1CCc1ccc(F)cc1	1	-20	-3
43	C[C@@H]1CN([C@H](C)CO)C(=O)c2cc(NS(C)(=O)=O)ccc2O[C@@H](C)CCCCO[C@H]1CN(C)C(=O)Nc1ccc2c(c1)OCO2	1	3	6
44	COC(=O)c1sc2ccccc2c1N	3	-27	7
45	COC(=O)C1=C(C(=O)OC)C(c2ccccc2O)c2sc(=O)[nH]c2S1 (stereo not given)	5	-464	x
46	C[C@H]1CN([C@@H](C)CO)C(=O)c2cccc(NC(=O)c3ccc(-c4nccs4)cc3)c2O[C@H]1CN(C)Cc1ccc(C(F)(F)F)cc1	3	3	-4

No.	E-selectin induc	Yeast UUG start	SIRT5 inh
31	56*	x	-1
32	1	x	9
33	x	x	25*
34	0	-16	45*
35	x	-21	8
36	x	-16	15*
37	x	-40	1
38	48*	-8	-6
39	0	1	3
40	0	6	x
41	375*	-6	-4
42	90*	-1	-1
43	0	-11	-4
44	0	4	x
45	x	x	16*
46	-2	-2	17*

# Of the compounds above, these have a CF3 group:
No.	mol	AF4-AF9 inh	RAD52 anneal inh	RAD54 branch
15	CN(CC(=O)Nc1ccc(OC(F)(F)F)cc1)C(=O)Cn1c(=O)cnc2ccccc21	0	-7	5
28	O=C(Nc1cccc(C(F)(F)F)c1)c1cc[n+]([O-])cc1	2	-19	x
40	CNC[C@@H]1OCCCC[C@H](C)Oc2ccc(NC(=O)Nc3ccc(C(F)(F)F)cc3)cc2C(=O)N([C@H](C)CO)C[C@@H]1C	2	x	14
46	C[C@H]1CN([C@@H](C)CO)C(=O)c2cccc(NC(=O)c3ccc(-c4nccs4)cc3)c2O[C@H]1CN(C)Cc1ccc(C(F)(F)F)cc1	3	3	-4

No.	E-selectin induc	Yeast UUG start	SIRT5 inh
15	x	-7	-2
28	27*	x	1
40	0	6	x
46	-2	-2	17*
